# Measurements published in PubChem BioAssay.
# Sequences of proteins named here, by UniProt entry; tags and fusion partners are left off. A change or cut given only in a name is not applied to a line headed by its entry.
# UniProt Q9UM07, whole entry, looked up: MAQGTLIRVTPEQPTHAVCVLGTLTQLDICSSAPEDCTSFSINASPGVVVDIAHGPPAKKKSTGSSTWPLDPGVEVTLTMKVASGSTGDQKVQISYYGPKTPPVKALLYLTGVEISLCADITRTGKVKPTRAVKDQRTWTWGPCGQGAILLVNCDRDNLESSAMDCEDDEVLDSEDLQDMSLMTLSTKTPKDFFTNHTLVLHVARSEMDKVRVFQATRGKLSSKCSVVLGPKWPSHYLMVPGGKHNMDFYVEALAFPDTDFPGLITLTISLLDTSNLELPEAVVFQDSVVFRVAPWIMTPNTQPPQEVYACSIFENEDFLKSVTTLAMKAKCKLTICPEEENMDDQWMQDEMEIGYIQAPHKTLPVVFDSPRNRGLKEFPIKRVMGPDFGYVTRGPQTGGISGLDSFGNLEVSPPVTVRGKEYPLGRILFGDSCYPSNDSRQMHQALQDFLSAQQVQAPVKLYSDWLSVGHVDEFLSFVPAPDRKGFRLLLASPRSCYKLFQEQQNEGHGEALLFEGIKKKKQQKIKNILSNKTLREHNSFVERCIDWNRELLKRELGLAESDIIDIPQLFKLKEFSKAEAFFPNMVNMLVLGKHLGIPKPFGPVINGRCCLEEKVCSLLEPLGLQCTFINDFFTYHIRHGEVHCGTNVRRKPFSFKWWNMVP
# UniProt Q9NR96: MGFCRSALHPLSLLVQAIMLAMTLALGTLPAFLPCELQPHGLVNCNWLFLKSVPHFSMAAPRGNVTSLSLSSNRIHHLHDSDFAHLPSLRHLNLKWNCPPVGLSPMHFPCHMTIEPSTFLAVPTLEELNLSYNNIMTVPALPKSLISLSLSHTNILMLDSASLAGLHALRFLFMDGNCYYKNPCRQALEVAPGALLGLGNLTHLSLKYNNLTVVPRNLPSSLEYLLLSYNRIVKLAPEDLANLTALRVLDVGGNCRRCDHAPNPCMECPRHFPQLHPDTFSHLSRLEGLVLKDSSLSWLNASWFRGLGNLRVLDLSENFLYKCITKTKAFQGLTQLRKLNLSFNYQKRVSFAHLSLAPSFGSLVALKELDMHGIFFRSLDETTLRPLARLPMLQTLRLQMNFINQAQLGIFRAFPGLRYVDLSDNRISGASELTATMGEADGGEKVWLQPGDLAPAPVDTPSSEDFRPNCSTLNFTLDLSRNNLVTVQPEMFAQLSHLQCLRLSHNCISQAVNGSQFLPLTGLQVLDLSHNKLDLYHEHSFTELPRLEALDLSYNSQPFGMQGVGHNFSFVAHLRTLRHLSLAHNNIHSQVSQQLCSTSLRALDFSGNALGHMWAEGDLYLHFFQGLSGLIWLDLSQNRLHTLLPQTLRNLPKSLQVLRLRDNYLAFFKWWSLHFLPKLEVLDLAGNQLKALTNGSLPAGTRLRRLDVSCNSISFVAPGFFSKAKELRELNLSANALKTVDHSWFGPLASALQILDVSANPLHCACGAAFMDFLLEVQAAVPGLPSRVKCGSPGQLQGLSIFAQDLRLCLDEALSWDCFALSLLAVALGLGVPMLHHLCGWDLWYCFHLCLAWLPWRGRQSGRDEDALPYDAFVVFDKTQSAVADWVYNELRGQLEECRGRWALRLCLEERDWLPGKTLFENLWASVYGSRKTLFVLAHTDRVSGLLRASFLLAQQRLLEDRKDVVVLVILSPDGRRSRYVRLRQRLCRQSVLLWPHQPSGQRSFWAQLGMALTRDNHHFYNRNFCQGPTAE
# UniProt P24468: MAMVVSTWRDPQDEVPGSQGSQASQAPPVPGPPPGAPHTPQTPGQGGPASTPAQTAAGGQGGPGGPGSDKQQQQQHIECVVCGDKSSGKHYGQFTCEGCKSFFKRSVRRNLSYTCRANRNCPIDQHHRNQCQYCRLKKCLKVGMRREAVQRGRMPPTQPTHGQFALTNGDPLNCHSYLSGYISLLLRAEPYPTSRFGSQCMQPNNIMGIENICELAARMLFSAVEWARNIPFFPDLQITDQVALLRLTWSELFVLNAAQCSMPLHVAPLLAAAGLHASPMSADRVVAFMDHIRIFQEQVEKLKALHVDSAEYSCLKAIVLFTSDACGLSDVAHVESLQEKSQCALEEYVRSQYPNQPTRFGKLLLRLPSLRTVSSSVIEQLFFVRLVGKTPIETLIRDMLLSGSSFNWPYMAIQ
# UniProt Q15788: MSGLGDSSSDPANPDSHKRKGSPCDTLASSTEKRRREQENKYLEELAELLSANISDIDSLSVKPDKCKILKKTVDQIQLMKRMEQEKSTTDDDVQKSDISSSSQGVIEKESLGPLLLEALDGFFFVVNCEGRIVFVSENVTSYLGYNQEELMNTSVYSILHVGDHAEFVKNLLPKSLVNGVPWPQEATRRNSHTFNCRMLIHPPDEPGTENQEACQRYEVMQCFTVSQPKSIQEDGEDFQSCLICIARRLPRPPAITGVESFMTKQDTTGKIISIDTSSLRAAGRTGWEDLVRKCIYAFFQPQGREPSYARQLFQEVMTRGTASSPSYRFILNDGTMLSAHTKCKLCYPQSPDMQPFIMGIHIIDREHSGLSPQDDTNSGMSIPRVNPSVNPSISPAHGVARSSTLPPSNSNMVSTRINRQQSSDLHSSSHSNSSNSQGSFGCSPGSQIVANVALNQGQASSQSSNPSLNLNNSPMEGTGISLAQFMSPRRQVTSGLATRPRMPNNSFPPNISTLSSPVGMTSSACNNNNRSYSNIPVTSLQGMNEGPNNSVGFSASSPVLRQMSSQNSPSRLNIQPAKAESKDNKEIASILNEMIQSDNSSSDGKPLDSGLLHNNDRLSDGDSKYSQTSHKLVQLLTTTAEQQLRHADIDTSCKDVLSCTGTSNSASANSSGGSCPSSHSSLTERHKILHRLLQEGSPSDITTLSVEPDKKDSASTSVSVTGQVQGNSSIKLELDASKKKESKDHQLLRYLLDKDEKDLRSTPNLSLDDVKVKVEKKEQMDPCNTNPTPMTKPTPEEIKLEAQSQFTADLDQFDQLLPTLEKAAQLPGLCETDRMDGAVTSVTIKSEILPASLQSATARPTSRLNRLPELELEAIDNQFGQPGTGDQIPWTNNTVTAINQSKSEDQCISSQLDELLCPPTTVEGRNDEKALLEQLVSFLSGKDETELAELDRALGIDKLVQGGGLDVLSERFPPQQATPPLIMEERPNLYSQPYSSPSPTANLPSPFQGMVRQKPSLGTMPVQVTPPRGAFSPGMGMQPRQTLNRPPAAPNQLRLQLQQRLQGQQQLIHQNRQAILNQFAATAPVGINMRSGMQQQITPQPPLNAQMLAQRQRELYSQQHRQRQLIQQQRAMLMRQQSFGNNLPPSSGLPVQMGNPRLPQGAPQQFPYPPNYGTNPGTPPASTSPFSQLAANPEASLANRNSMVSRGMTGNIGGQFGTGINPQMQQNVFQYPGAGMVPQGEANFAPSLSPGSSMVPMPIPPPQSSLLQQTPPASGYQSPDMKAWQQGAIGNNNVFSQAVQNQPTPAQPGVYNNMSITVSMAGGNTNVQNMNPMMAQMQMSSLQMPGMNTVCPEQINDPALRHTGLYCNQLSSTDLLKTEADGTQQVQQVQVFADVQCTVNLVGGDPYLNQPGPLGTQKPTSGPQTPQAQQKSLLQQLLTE
# The list shows a part of the results, in another mix than the full data. Activity calls are given as the source filed them.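 How the source made its calls, unless noted: active means mean inhibition across three repeat runs above about 25% carried over from the earlier screen (limit read from the data); inactive means the rest.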
# Experiments:
# [1] = target: Protein-arginine deiminase type-4 (Homo sapiens) (UniProt Q9UM07); experiment: human PAD4 inhibitors, primary screen, biochemical, fluorescence polarization (AID 463073;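 active means inhibition above 30%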;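 further: 0% = PAD4 with DMSO and 100% = wells lacking PAD4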); conditions: recombinant PAD4, RFA probe fluorescence polarization; at 5 µM; stronger effect = higher value
# How it was run: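 system = recombinant PAD4 | amount = PAD4 at 2 µM in dispensed buffer, before additions | incubation = 30 min 25 °C preincubation, 5 h 37 °C labeling | measured by = FP, ex 525 nm, em 598 nm | replication = single well per compound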
# [2] = test system: TLR4-MyD88 interaction (human), BLA complementation; experiment: TLR4-MyD88 association inhibitors, retest, confirmation, cell-based, HeLa CL3-4, BLA complementation, FRET ratio (AID 941); conditions: CCF4 FRET ratio, at 8.4 µM, stronger effect = higher value;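 further: plate controls were DMSO only for no effect and clavulanic acid blocking BLA at full dose for full effect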
# [3] = inhibitors of full-length beta-lactamase reporter, confirmation, artefact control for TLR4-MyD88 binding inhibitor project, cell-based, HeLa, full-length BLA, CCF4 FRET ratio (AID 1237;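 active means mean inhibition over three repeats above about 26% taken from the earlier screen, limit read from the data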;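 further: HeLa cells stably expressing beta-lactamase reporter as counterscreen for TLR4-MyD88 inhibitors; 0% = DMSO and 100% = clavulanic acid full inhibition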); conditions: at 8.4 µM, stronger effect = higher value
# [4] = target: Toll-like receptor 9 (Homo sapiens) (UniProt Q9NR96); experiment: TLR9-MyD88 association inhibitors, retest, confirmation, cell-based, CHO, BLA complementation, fluorescence, triplicate (AID 540250;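 active means mean inhibition across three repeats above about 21% taken from the earlier screen, limit read from the data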;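 further: blue over green emission ratio reports constitutive TLR9 MyD88 association via BLA complementation; 0% = DMSO vehicle wells and 100% = clavulanate BLA inhibitor wells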); conditions: CCF4 FRET ratio, at 4.98 µM, stronger effect = higher value
# [5] = beta-lactamase reporter inhibitors in CHO cells, artefact control for TLR9-MyD88 binding inhibitor project, cell-based, fluorescence (AID 540251;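 active means mean inhibition above a 50% cutoff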;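 further: counterscreen of TLR9-MyD88 hits on CMV-driven BLA in CHO-K1 cells; 0% = DMSO alone and 100% = clavulanate blocking BLA; higher means less blue over green ratio so more BLA blockade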); conditions: CHO-BLA cells, CCF4 FRET ratio, at 4.98 µM, stronger effect = higher value
# [6] = CHO cell viability loss – luminescence, single concentration, cytotoxicity control for TLR9-MyD88 binding inhibitor project (AID 588336; in the data active means inhibition above about 11%); conditions: TLR9-MyD88 CHO cells cytotoxicity, at 4.98 µM, stronger effect = higher value
# [7] = target: COUP transcription factor 2 (Homo sapiens) (UniProt P24468); experiment: NR2F2 transcriptional activity inhibitors, confirmation, cell-based, luciferase reporter, HEK293, triplicate (AID 687008;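 active means mean inhibition over three repeats above a set limit taken from the earlier primary screen, cut at about 38% in these data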;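 further: 100% = cells given the luciferase reporter alone without the COUP-TF2 vector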); conditions: HEK293 NGFI-A luciferase reporter, luminescence; at 8.5 µM; stronger effect = higher value
# [8] = target: Nuclear receptor coactivator 1 (Homo sapiens) (UniProt Q15788); experiment: SRC1 coactivator transcriptional activity inhibitors, confirmation, cell-based, luminescence, quadruplicate (AID 588820;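 active means mean inhibition above 46.68%, the untreated control wells mean plus 3 SD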;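 further: 0% = DMSO wells and 100% = gossypol 36 µM treated wells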); conditions: HEK293 GAL4-SRC1 luciferase reporter, at 3.6 µM, stronger effect = higher value
smiles,measurement,setting,value
CN(C(=O)Cc1ccc(Cl)c(Cl)c1)[C@@H]1CCCC[C@H]1N1CCCC1,inhibition,[1],inactive: 0.13%
Cc1c2non([O-])c-2c(C)[n+](=O)[n+]1[O-],inhibition,[2],inactive: 14.5%
same,inhibition,[3],inactive: 16.7%
CN(C)C(=O)c1cc([N+](=O)[O-])cc2c1-c1c(cc([N+](=O)[O-])cc1[N+](=O)[O-])C2=O,inhibition,[4],inactive: 16.5%
same,inhibition,[5],inactive: 15.8%
same,inhibition,[6],active: 86.4%
C[N+]1=C2C=CC=CC=C2SC12C([N+](=O)[O-])=CC([N+](=O)[O-])=C[C-]2[N+](=O)[O-] (stereo not drawn),inhibition,[7],inactive: 0.21%
CC(C)c1ccc(OP(=O)(Nc2ccccn2)Oc2ccccc2F)cc1 (stereo not drawn),inhibition,[8],inactive: 0.81%
